In patent US20220380347A1:

Tested on: cells without virus infection

## CC(C)(C)c1ccc(N(C(=O)[C@H]2C[C@@H](O)CN2C#N)C(C(=O)NC2CCCCC2)c2cncc(F)c2)cc1 (single isomer, unassigned)
  CC50: 10 to 30 µM
